Measured values taken from patent US10973819B2, “Small molecules inhibitors of RAD51” (The University of Chicago, priority 2016, dated 2021).

Molecular target: T1, RAD51 (Homo sapiens, UniProt Q06609)
T1 sequence (Q06609 1-339): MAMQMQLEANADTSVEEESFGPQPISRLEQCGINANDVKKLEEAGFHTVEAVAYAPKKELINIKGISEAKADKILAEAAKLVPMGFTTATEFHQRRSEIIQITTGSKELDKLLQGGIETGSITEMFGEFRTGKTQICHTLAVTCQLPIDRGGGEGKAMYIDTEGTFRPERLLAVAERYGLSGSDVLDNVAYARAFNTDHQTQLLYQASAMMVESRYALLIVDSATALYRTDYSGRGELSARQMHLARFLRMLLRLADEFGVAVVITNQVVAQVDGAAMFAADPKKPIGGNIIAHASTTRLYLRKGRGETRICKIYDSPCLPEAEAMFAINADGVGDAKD
Experiment: Gel-based D-loop assay
Format: biochemical
Conditions: Table 2
Method: Human RAD51 in reaction buffer was combined with compound in […] DMSO, incubated at 37° C. for 10 min, and then 1 μl of 5′-^32P-labeled 90-mer ssDNA (5′-[…]) with homology to the plasmid pRS306 ^34 was added and the reaction was incubated at 37° C. for an additional 5 minutes. 1 μl of supercoiled pRS306 was then added to the reaction and incubated at 37° C. for 20 minutes; at this point the reaction consisted of 25 mM HEPES-NaOH (pH 7.0), 1 mM ATP, 1 mM MgCl2, 1 mM DTT, 1.5 μM BSA, 4.5% DMSO, 0.5 μM RAD51, 11 mM NaCl, 1% glycerol, 20 nM ssDNA, and 5 nM pRS306. The reactions were de-proteinized with 0.8% SDS and 0.8 mg/ml proteinase K, mixed with gel loading buffer, and run on a 0.9% agarose/1×TAE gel, which was dried and exposed to a phosphor screen overnight and imaged on a Storm 860 PhosphorImager. Compound IC50 values were obtained by least-squares regression fitting of appropriate linear, log, or sigmoid dose-response models to the data, with the standard error indicated.
To improve upon the D-loop inhibitory activity, medicinal chemical studies were undertaken to optimize 8. First, different functional groups were appended to rings A and B as substituents, including alkyl groups of different sizes, electron withdrawing/donating groups, and hydrogen bond donor/acceptor groups. Next, replacement of the phenyl ring B with different heterocycles or other saturated/unsaturated rings was investigated in order to probe its role. For each of the prepared compounds, the gel-based D-loop assay and the microplate-based DNA binding assay were used to characterize the biochemical activities.

Row | Compound | D-Loops Max inhibition effect [%]
1 | Oc1ccc(-c2nc3ccccc3n3cccc23)cc1 [Compound 9d] | 38 ± 3
2 | C1=C(c2nc3ccccc3n3cccc23)CCCC1 [Compound 11c, 4-(Cyclohex-1-en-1-yl)pyrrolo[1,2-a]quinoxaline] | 5 ± 11
3 | c1ccc2c(-c3nc4ccccc4n4cccc34)cccc2c1 [Compound 11d, 4-(Naphthalen-1-yl)pyrrolo[1,2-a]quinoxaline] | 42 ± 11
4 | O=[N+]([O-])c1cccc(-c2nc3ccccc3n3cccc23)c1 [Compound 9b, 4-(3-Nitrophenyl)pyrrolo[1,2-a]quinoxaline] | 20 ± 8
5 | O=[N+]([O-])c1ccc(-c2nc3ccccc3n3cccc23)cc1 [Compound 9f, 4-(4-Nitrophenyl)pyrrolo[1,2-a]quinoxaline] | 2 ± 21
6 | c1ccc2c(c1)nc(-c1ccncc1)c1cccn12 [Compound 11b, 4-(Pyridin-4-yl)pyrrolo[1,2-a]quinoxaline] | 63 ± 4
7 | FC(F)(F)Oc1ccc(-c2nc3ccccc3n3cccc23)cc1 [Compound 9e, 4-(4-(Trifluoromethoxy)phenyl)pyrrolo[1,2-a]quinoxaline] | 22 ± 8
8 | Nc1ccc(-c2nc3ccccc3n3cccc23)cc1 [Compound 9g, 4-(Pyrrolo[1,2-a]quinoxalin-4-yl)aniline] | 100 ± 2
9 | c1ccc2c(c1)nc(-c1ccc(N3CCCC3)cc1)c1cccn12 [Compound 9i, 4-(4-(Pyrrolidin-1-yl)phenyl)pyrrolo[1,2-a]quinoxaline] | 8 ± 7
10 | Nc1cccc(-c2nc3ccccc3n3cccc23)c1 [Compound 9c, 3-(Pyrrolo[1,2-a]quinoxalin-4-yl)aniline] | 79 ± 8
11 | c1cncc(-c2nc3ccccc3n3cccc23)c1 [Compound 11a, 4-(Pyridin-3-yl)pyrrolo[1,2-a]quinoxaline] | 70 ± 13
12 | CN(C)c1ccc(-c2nc3ccccc3n3cccc23)cc1 [Compound 9a, N,N-dimethyl-4-(pyrrolo[1,2-a]quinoxalin-4-yl)aniline] | 61 ± 4

Same assay, conditions: Table 2; read-out: D-Loops IC50

Row | Compound | IC50 [µM]
13 | CCNc1ccc(-c2nc3ccccc3n3cccc23)cc1 [Compound 9h, N-ethyl-4-(pyrrolo[1,2-a]quinoxalin-4-yl)aniline] | 15.8 ± 3.1

Same assay, conditions: Table 3

Row | Compound | D-Loops Max inhibition effect [%]
14 | Nc1ccc(-c2nc3cc(F)c(F)cc3n3cccc23)cc1 [Compound 12l, 4-(7,8-Difluoropyrrolo[1,2-a]quinoxalin-4-yl)aniline] | 59 ± 4
15 | CN(C)c1ccc(-c2nc3cc(F)c(F)cc3n3cccc23)cc1 [Compound 12m, 4-(7,8-Difluoropyrrolo[1,2-a]quinoxalin-4-yl)-N,N-dimethylaniline] | 19 ± 15
16 | Nc1ccc(-c2nc3cc(F)ccc3n3cccc23)cc1 [Compound 12i, 4-(7-Fluoropyrrolo[1,2-a]quinoxalin-4-yl)aniline] | 95 ± 6
17 | CN(C)c1ccc(-c2nc3cc(F)ccc3n3cccc23)cc1 [Compound 12j, 4-(7-Fluoropyrrolo[1,2-a]quinoxalin-4-yl)-N,N-dimethylaniline] | 31 ± 4
18 | CCCOc1ccc2c(c1)nc(-c1ccc(N)cc1)c1cccn12 [Compound 15a, 4-(7-Propoxypyrrolo[1,2-a]quinoxalin-4-yl)aniline] | 75 ± 7
19 | Nc1ccc(-c2nc3cc(O)ccc3n3cccc23)cc1 [Compound 12f, 4-(4-Aminophenyl)pyrrolo[1,2-a]quinoxalin-7-ol] | 100 ± 3
20 | COc1ccc2c(c1)nc(-c1ccc([N+](=O)[O-])cc1)c1cccn12 [Compound 12b, 7-Methoxy-4-(4-nitrophenyl)pyrrolo[1,2-a]quinoxaline] | 17 ± 7
21 | O=[N+]([O-])c1ccc(-c2nc3cc(O)ccc3n3cccc23)cc1 [Compound 12e, 4-(4-Nitrophenyl)pyrrolo[1,2-a]quinoxalin-7-ol] | 13 ± 10
22 | Nc1ccc(-c2nc3cc(OCCF)ccc3n3cccc23)cc1 [Compound 15b, 4-(7-(2-Fluoroethoxy)pyrrolo[1,2-a]quinoxalin-4-yl)aniline] | 98 ± 5
23 | CN(C)c1ccc(-c2nc3cc(OC(C)(C)C(N)=O)ccc3n3cccc23)cc1 [Compound 16, 2-((4-(4-(Dimethylamino)phenyl)pyrrolo[1,2-a]quinoxalin-7-yl)oxy)-2-methylpropanamide] | 38 ± 4
24 | Oc1ccc(-c2nc3cc(O)ccc3n3cccc23)cc1 [Compound 12d, 4-(4-Hydroxyphenyl)pyrrolo[1,2-a]quinoxalin-7-ol] | 97 ± 8

Same assay, conditions: Table 3; read-out: D-Loops IC50

Row | Compound | IC50 [µM]
25 | Oc1ccc2c(c1)nc(-c1cccnc1)c1cccn12 [Compound 13b, 4-(Pyridin-3-yl)pyrrolo[1,2-a]quinoxalin-7-ol] | 64.9 ± 31.6

Molecular target: T1, RAD51
Experiment: Fluorescence polarization-based DNA binding assay (RAD51-ssDNA binding)
Format: biochemical
Conditions: Table 2; Stim = stimulator
Method: The fluorescence polarization-based DNA binding assay and purification of human RAD51 used for this assay was performed as previously described with a few modifications.^23 Reactions were carried out in black 384-well polystyrene plates. In each well, RAD51 protein was combined with reaction buffer and varying concentrations of compound in DMSO in an initial volume of 40 μl and incubated at 37° C. for 40 minutes. Then, 10 μl of reaction buffer containing fluorescently-labeled ssDNA substrate (5′-Alexa488-oligo-dT45) was added and the reaction incubated at 37° C. for another 40 minutes, after which the plate was read on a Tecan Infinite 200 Pro plate reader equipped with two sets of 485±25 nm/535±35 nm with parallel or perpendicularly-oriented polarization filters. In both steps of the reaction setup, buffer components were maintained at 20 mM HEPES-NaOH (pH 7.5), 2 mM ATP, 10 mM MgCl2, 0.1 mM TCEP-HCl (tris(2-carboxyethyl)phosphine), and 0.25 μM BSA. The final reaction contained 4% DMSO, 0.2 μM RAD51, 30 mM NaCl, 2% glycerol, and 2.22 nM ssDNA substrate. Compound IC50 values were obtained by least-squares regression fitting of appropriate linear, log, or sigmoid dose-response models to the data, with the standard error indicated. […]

Row | Compound | IC50 [µM]
26 | CCNc1ccc(-c2nc3ccccc3n3cccc23)cc1 [Compound 9h, N-ethyl-4-(pyrrolo[1,2-a]quinoxalin-4-yl)aniline] | > 100
